## Apparent affinities of Ab-14 variants for a coronavirus HR2 peptide

The target is the same throughout: PDVDLGDISGINAS, from the HR2 region of SARS-CoV-2 spike.

Parent: Ab-14, a human scFv built as VH, three GGGGS repeats, VL. Only the CDRs of the heavy chain vary.
VH: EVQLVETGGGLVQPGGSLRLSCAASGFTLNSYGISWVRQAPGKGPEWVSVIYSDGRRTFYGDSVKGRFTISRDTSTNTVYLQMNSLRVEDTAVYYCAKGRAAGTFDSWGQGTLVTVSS
VL: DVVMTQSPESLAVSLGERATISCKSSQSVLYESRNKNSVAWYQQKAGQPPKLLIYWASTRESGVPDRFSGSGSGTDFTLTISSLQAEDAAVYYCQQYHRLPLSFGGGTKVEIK

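Phage display of a naive human antibody library on the peptide gave the parent. This is the validation round: designs drawn from the data on random variants, tested in the same kind of assay. Several design methods are mixed in this list. AlphaSeq pools MATa yeast showing the antibodies with MATalpha yeast showing the peptide. The frequency of each diploid, read from paired DNA barcodes, reflects how well the two displayed proteins bind. The ratio of observed to expected reads was calibrated, replicate by replicate, on BCL2-family standards whose Kd was known from biolayer interferometry. There are six technical replicates.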

Each variant is given by its three heavy chain CDRs, as the data file delimits them; those of the parent are GFTLNSYGIS, VIYSDGRRTFYGDSVK, GRAAGTFDS.
Values are log10 of the apparent Kd in nM; lower means stronger binding.
"nd" means that the variant was in the library but no mating with the target was seen in that replicate; the authors take this as a sign of poor binding, and no number exists.
Nonspecific signal, from three strains lacking the peptide, appeared in 1% of pairings of all heavy chain designs, centred on 2.08 (5% of these signals below 0.84); values are not corrected for it. For each scFv, signals with the empty controls are counted beside the result, with their mean in brackets.

CDR-H1,CDR-H2,CDR-H3,"replicates, log10 nM",empty controls
GFDLNEYGIS,VIYADGMRTSYVDSVK,GNNAGTFDV,-0.30 / -0.37 / -0.55 / -0.28 / -0.27 / -0.12,0/18
GFTINNYGIS,VIYSDGRRTFYGDAVK,GRNDATFES,nd / nd / nd / nd / nd / nd,0/18
GFTLNSYGIS,VIYADGARTFYGDSVK,GRAAGTNKK,nd / nd / nd / nd / nd / nd,0/18
GFDLNEYGIS,VIYADGRRTFYADSVK,GNNAGTFDS,-0.47 / -0.72 / -0.70 / -0.84 / -0.70 / -0.81,0/18
GFDLNEYGIS,VIYADGKRTFYVDSVK,GETAGTFDV,-0.47 / -0.65 / -0.41 / -0.87 / -1.00 / -0.12,0/18
GFSLNEYGIS,VIYSDGRRTFYSDSVK,GRHAGTFDS,1.21 / 0.71 / 0.34 / 0.81 / 1.14 / 0.68,0/18
GFELNSYGIS,VIYSDGRRTFYIDDVK,GQAAGTFDV,nd / 2.27 / nd / 1.21 / 0.96 / 0.94,0/18
GFDLNSYGIS,VIYSDGRRTFYLDSVK,GNAAGTFDS,0.50 / 0.41 / 0.05 / 0.12 / 0.36 / 0.30,2/18 (1.87)
GFTLESYGIS,VIYSDGRRTFYGDSVK,GQGAGTFDS,2.18 / nd / 2.02 / nd / nd / nd,1/18 (1.60)
GFTLNSYGIS,VIYSDGRRTFYKDSVK,GVAAGTFDS,1.89 / 1.64 / 1.02 / 1.25 / 1.21 / nd,0/18
GFNLNSYGIS,VIYSDGRRTFYVDSVK,GKAAGTFDS,nd / 1.41 / nd / nd / 1.18 / 1.25,0/18
GFTLNMYGIS,VIYSDGRRTFYGDSVK,GREAGTFDS,0.78 / 0.96 / 0.64 / 1.00 / 0.88 / 2.45,0/18
GLELNEYGIS,VIYSDGRRTFYGDSVK,GTAAGTFDS,0.38 / 1.04 / 0.37 / 0.56 / 0.90 / 0.75,0/18
GFDLNEYGIS,VIYADGMRTAYSDSVK,GNTAGTFDI,0.03 / -0.41 / -0.09 / 0.43 / -0.20 / 0.26,1/18 (0.90)
GFTLNSYGIS,VIYSDGIRTFYNDSVK,GQAEGTFDS,nd / nd / nd / nd / 3.08 / nd,1/18 (3.25)
GFTLNSYGIS,VIYSDGHRTFYIDSVK,GQLAGTFDS,nd / nd / 0.70 / nd / nd / nd,0/18
GFSLNNYGIS,VIYSDGRRTFYGDSVK,GQAAGTFDL,0.41 / 0.55 / 0.27 / 0.05 / 0.32 / 0.07,2/18 (2.43)
GFDLNEYGIS,VIYADGVRKSYADSVK,GENAGTFDV,-0.08 / -0.24 / -0.42 / -0.28 / -0.17 / -0.19,0/18
GFELNSYGIS,VIYSDGRRTFYSDSVK,GRVAGTFDS,0.32 / -0.01 / -0.03 / -0.09 / 0.31 / 0.23,1/18 (4.45)
GFCLNEYGIS,VIYSDGRRTFYGDSVK,GRTAGTFDS,nd / 1.05 / nd / nd / 1.90 / 1.40,0/18
GWTLGEYGIS,VIYSDGRRGFYTDSVK,GRFAGTFDS,nd / nd / 1.86 / 2.31 / 1.92 / nd,0/18
GFDLDEYGIS,VIYADGRRTAYVDSVK,GNVAGTFDL,-0.29 / -0.30 / -0.81 / -0.82 / 0.65 / -0.09,0/18
GFSLNSYGIS,VIYSDGRRTFYSDQVK,GQAAGTFDS,0.70 / 0.29 / 0.92 / 0.41 / 0.61 / 0.69,0/18
GFRLNSYGIS,VIYSDGRRTFYDDSVK,GQLAGTFDS,1.77 / 1.44 / 1.76 / 1.88 / 1.98 / 2.11,1/18 (3.27)
GFDLNSYGIS,VIYSDGRRTFYIDSVK,GQAAGTFDR,0.83 / 0.72 / 0.48 / 0.89 / 1.09 / 1.04,1/18 (1.67)
GFDLNSYGIS,VIYSDGRRTFYGDSVK,GRTAGTFWS,nd / nd / nd / nd / nd / nd,0/18
GFRLNEYGIS,VIYSDGRRTFYADSVK,GRAAGTFDS,0.78 / 0.99 / 0.56 / 0.74 / 0.56 / 0.78,0/18
GFDLNEYGIS,VIYADGMRSVYADSVK,GNVAGTFDV,-0.34 / -0.65 / -0.21 / -0.25 / -0.05 / -0.34,0/18
GFDLNEYGIS,VIYADGRRTAYADSVK,GTNAGTFDI,nd / 2.12 / nd / nd / nd / nd,0/18
GYDLNEYGIS,VIYADGRRAATINQVK,GSNSDTFSL,nd / nd / nd / nd / nd / nd,0/18
GFTLNDYGIS,VIYSDGRRTFYADSVK,GRAAGTFMS,nd / nd / 2.81 / nd / nd / nd,0/18
GFDLNSYGIS,VIYSDGRRTFYGDSVK,GQEAGTFDT,0.41 / 0.05 / -0.34 / -0.20 / -0.30 / 0.27,0/18
GFTLNSYGIS,VIYSDGMRTFYGDSVK,GQTAGTFDV,1.15 / 1.30 / 1.63 / 0.93 / 1.42 / 1.21,0/18
GFDLDEYGIS,VIYSDGRRTFYGDSVK,GRAAGTFDS,nd / nd / nd / 0.52 / 0.22 / nd,0/18
MFELNSYGIS,VIYSDGRRTFYGDSVK,GQIAGTFDS,nd / 1.57 / nd / nd / nd / nd,0/18
GFTLESYGIS,VIYADGRRTFYGDSVK,GKAAGTFDT,0.45 / -0.01 / -0.15 / 0.19 / -0.56 / 0.02,0/18
GFSLNSYGIS,VIYSDGRRTFYGDSVK,GMQAGTFDS,0.01 / 0.25 / 0.20 / 0.36 / -0.02 / 0.41,0/18
GFTLNSYGIS,VIYSDGKRTFYGDSVK,GRASGTFDS,nd / nd / nd / nd / nd / nd,0/18
GFEIQEFGIS,VIYADGERTNYAENVK,GTLAGTFTT,nd / 2.15 / 2.74 / 2.59 / 2.51 / 1.69,1/18 (2.59)
GFNLDEYGIS,VIYADGVRKAYSSKVK,GVVHWFNLQ,nd / nd / nd / nd / nd / nd,0/18
GFTLNQYGIS,VIYSDGRRTFYGDSVK,GWAAGTFDS,nd / nd / nd / nd / nd / nd,0/18
HFNLNSYGIS,VIYSDGRRTFYADSVK,GNAAGTFDS,nd / 3.08 / 1.94 / 1.93 / nd / 1.81,0/18
GFELDEYGIS,VIYADGKRKAYDQAVK,GKTGGVKLD,nd / nd / nd / nd / nd / nd,0/18
GFDLNEYGIS,VIYADGMRVSYTNTVK,GGNSMISAT,nd / nd / nd / nd / nd / nd,0/18
MFDLNSYGIS,VIYSDGRRTFYADSVK,GNAAGTFDS,1.92 / 1.64 / 4.33 / 2.35 / 1.94 / nd,0/18
GFQLNSYGIS,VIYSDGRRTFYGDSVK,GREAGTFDS,nd / 1.07 / 1.39 / 2.15 / 1.04 / 1.50,0/18
GFELNSYGIS,VIYSDGRRTFYGDSVK,GRTAGTFDT,0.39 / -0.08 / 0.15 / 0.09 / 0.12 / -0.05,0/18
GDGLEEYGIS,VIYADGMRTYYEPSVK,GNVNGVMFI,nd / nd / nd / nd / nd / nd,2/18 (2.64)
GFELNSYGIS,VIYSDGRRTFYKDSVK,GNAAGTFDS,0.25 / 2.18 / 0.44 / 0.37 / 0.06 / 0.45,0/18
GFDLDEYGIS,VIYADGRRTAYADDVK,GNVAGTFDT,-0.25 / -0.55 / -0.70 / -0.79 / -0.65 / -0.54,0/18

Picked from the list: the 8 lowest averages where every replicate gave a value.

CDR-H1,CDR-H2,CDR-H3,"replicates, log10 nM",empty controls
GFDLNEYGIS,VIYADGRRTFYADSVK,GNNAGTFDS,-0.47 / -0.72 / -0.70 / -0.84 / -0.70 / -0.81,0/18
GFDLNEYGIS,VIYADGKRTFYVDSVK,GETAGTFDV,-0.47 / -0.65 / -0.41 / -0.87 / -1.00 / -0.12,0/18
GFDLDEYGIS,VIYADGRRTAYADDVK,GNVAGTFDT,-0.25 / -0.55 / -0.70 / -0.79 / -0.65 / -0.54,0/18
GFDLNEYGIS,VIYADGMRTSYVDSVK,GNNAGTFDV,-0.30 / -0.37 / -0.55 / -0.28 / -0.27 / -0.12,0/18
GFDLNEYGIS,VIYADGMRSVYADSVK,GNVAGTFDV,-0.34 / -0.65 / -0.21 / -0.25 / -0.05 / -0.34,0/18
GFDLDEYGIS,VIYADGRRTAYVDSVK,GNVAGTFDL,-0.29 / -0.30 / -0.81 / -0.82 / 0.65 / -0.09,0/18
GFDLNEYGIS,VIYADGVRKSYADSVK,GENAGTFDV,-0.08 / -0.24 / -0.42 / -0.28 / -0.17 / -0.19,0/18
GFDLNSYGIS,VIYSDGRRTFYGDSVK,GQEAGTFDT,0.41 / 0.05 / -0.34 / -0.20 / -0.30 / 0.27,0/18

The parent sequence was in this pool as ten entries: three were never detected, three once, and four in most replicates, with averages from 0.34 to 2.37.
The authors averaged sequences with at least three values out of six and counted those with two or fewer as poor binders.
A sequence measured in both rounds can read differently, since the two assays cover different ranges.

Values reported by Li et al. 2023, doi:10.1038/s41467-023-39022-2 (FLAb copy).